Values of other authors, collected in publication PMC3411462, “Long-acting κ opioid antagonists nor-BNI, GNTI and JDTic: pharmacokinetics in mice and lipophilicity” (BMC Pharmacology, 2012).

Tested on: μ opioid receptor
Conditions: highest sub-lethal i.c.v. dose; cited from earlier work

In the case of β-chlornaltrexamine, the “μ antagonism, duration” value is listed as “less than 6 days”.
